Data on one molecule can be found in patent US12129244B2, “Modulators of Mas-related G-protein receptor X2 and related products and methods” (Escient Pharmaceuticals, Inc., priority 2022, dated 2024).

Protein sequences, listed by entry. Tags and fused reporters are not part of them.
UniProt Q96LB1, whole entry: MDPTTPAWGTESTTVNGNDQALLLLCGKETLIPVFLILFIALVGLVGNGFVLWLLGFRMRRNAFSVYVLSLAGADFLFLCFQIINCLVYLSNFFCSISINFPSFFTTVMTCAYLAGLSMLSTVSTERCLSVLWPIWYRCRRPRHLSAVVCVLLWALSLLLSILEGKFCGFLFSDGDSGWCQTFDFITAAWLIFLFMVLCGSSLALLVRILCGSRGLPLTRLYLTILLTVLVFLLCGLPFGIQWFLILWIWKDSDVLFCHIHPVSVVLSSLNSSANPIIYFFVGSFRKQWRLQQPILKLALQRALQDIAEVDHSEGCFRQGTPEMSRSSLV

In the assay the target is human MRGPRX2 (Homo sapiens, UniProt Q96LB1). Nature of the assay: MRGPRX2 activity: IP-One HTRF antagonist assay in CHO cells versus Cortistatin-14. The conditions noted are these: read-out: MRGPRX2 Antagonist Activity; CHO cells stably expressing human MRGPRX2; versus 0.3 uM Cortistatin-14 agonist; IP-1 HTRF. On the procedure:
CHO cells stably transfected to express human MRGPRX2 were maintained in an incubator at 37° C. with 5% CO2 and grown in F12 (HAM) media with 10% fetal bovine serum (FBS), 1% Glutamax, 1% penicillin/streptomycin, 800 μg/mL Geneticin (G418), and 300 μg/mL Hygromycin B.
Cells were plated in a 384-well assay plate at 20,000 cells per well in 12 μL of Opti-MEM and kept in an incubator overnight. On the day of the assay, compounds solubilized at 10 mM in DMSO were added as a 10-point curve (30 uM final top concentration with 1:3 serial dilutions) using a Tecan D300E digital dispenser. Agonists were diluted in assay buffer (final concentrations of 5.7 mM Tris-HCl, 43 mM NaCl, 50 mM LiCl, pH=8) and 2 μL of the agonist Cortistatin-14 (CPC Scientific, catalog CORT-002) are added to each well. Final concentrations of agonists were 0.3 μM Cortistatin. Final concentrations of DMSO were kept consistent across the plate. Plates were incubated in the dark for 1 h at 37° C. and then for 1 h at room temperature. IP-1 standards and HTRF detection reagents were added according to the IP-One-Gq Kit purchased from Cisbio (part number 62IPAPEJ) and incubated in the dark for 1 h at room temperature. The plate was read on a Molecular Devices SpectraMax iD5 plate reader. The HTRF ratio was calculated from the raw data and graphed using GraphPad Prism to calculate an IC50 value for each compound. […]
On the technique in general: Time-resolved FRET reads energy transfer from a long-lived donor to a nearby acceptor.

A value given as a limit tells only on which side of the number the result lay.

As for `N#CCCn1ncc(C(=O)N[C@@H]2CCC[C@H](Nc3cc(C(F)(F)F)nc4ccc(Cl)cc34)C2)c1Cl`, the IC50 was below 0.1 µM.
